# INS-1E GSIS act: primary screen for activators of insulin secretion dependent on glucose, INS-1E cells, GLuc reporter luminescence; 0.61% of 370,000 active; INS-1E GLuc reporter insulin secretion, 2-3 h; activation, % at 16.6 µM;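 active = lowest replicate activation of at least 40%, so every replicate reaches that level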
# RAD54 branch: inhibitors of human RAD54 branch migration; Q92698; RAD54 Holliday junction branch migration, FAM/BHQ fluorescence; inhibition, % at 10.4 µM; 0.14% of 360,000 active; AID 602329;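 active = mean normalized replicate activity at least 40 and at least half of replicates scoring 40 or more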;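 also: inhibitors cause a drop in the FAM fluorescence signal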
# CASP6 VEID inh: inhibitors of human caspase-6. P55212. purified caspase-6, Z-VEID-R110 cleavage fluorescence. inhibition, % at 12.5 µM. 0.53% of 350,000 active;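 active = mean inhibition across replicates at least about 35%, with every replicate also reaching that limit, limit read from the data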
# PglD DTNB: PglD (C. jejuni) enzyme inhibition; purified PglD enzyme, DTNB colorimetric CoA detection; inhibition, % at 12.5 µM; 0.098% of 360,000 active; AID 602405; in the data active = inhibition above about 16%, passing the limit was not always enough
# RAD52 anneal inh: inhibitors of human RAD52 DNA annealing; recombinant RAD52 DNA annealing, FRET fluorescence; P43351; 0.46% of 360,000 active; AID 651710; inhibition, % at 18.7 µM;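 active = every replicate showing at least 50% inhibition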
# Yeast UUG start-1: yeast start codon fidelity modulation; AID 602363; activity score, % at 18.7 µM; S. cerevisiae UUG-firefly luciferase reporter, luminescence/redox ratio; 0.13% of 350,000 active;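 active means replicate mean at a twofold rise or more, about +100% in these data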;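 further: firefly luciferase made from a UUG start codon reports start codon fidelity; reporter light over untreated wells divided by growth signal over untreated wells; some hits fall short of that in this replicate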
# Yeast UUG start-2: alters UUG start codon use in yeast | shares compounds with Yeast UUG start-1 | S. cerevisiae UUG-start firefly luciferase, luminescence, 4 h; 100% means double the DMSO signal | activation, % at 38 µM | 540 tested, under 10 active;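 active = signal increase whose fitted curve reaches an absolute level of 40 at a concentration under 10 µM; inactive = activity opposite to the expected increase, or the rest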
# A number is an active result; – = inactive; · = not tested or not shown. Most compounds without a hit are left out; they make up all but 1.5% or so of the library.
SMILES,INS-1E GSIS act,RAD54 branch,CASP6 VEID inh,PglD DTNB,RAD52 anneal inh,Yeast UUG start-1,Yeast UUG start-2
Cc1cc(C)c2nc3sc(=Cc4ccc(-c5ccccc5C(=O)O)o4)c(=O)n3c2c1,–,–,·,–,–,–,·
Cc1ccccc1-n1c(SCC(=O)N(C)C2CCS(=O)(=O)C2)nnc1-c1ccncc1 (configuration not stated),–,–,–,–,–,–,·
Cc1ccccc1-n1c(SCC(=O)c2cc(C)n(C)c2C)nnc1-c1ccncc1,·,–,·,–,·,–,–
CCOc1ccc(C(=O)NCC(=O)OCC(=O)c2ccc3c(c2)-c2ccccc2C3)cc1,–,·,–,·,–,·,·
COc1ccccc1C(=O)NCC(=O)OCC(=O)c1ccc2c(c1)-c1ccccc1C2,–,–,·,–,·,551,–
Cc1cc(-n2c(C)cc(C(=O)CSc3nc4ccccc4c(=O)n3Cc3ccco3)c2C)no1,·,–,·,–,·,685,–
COCCn1c(SCC(=O)c2cc(C)n(C)c2C)nc2ccccc2c1=O,–,·,–,·,–,·,–
O=C(CSc1nc2ccccc2c(=O)n1Cc1ccco1)c1ccccc1,·,–,·,–,·,–,–
COCCn1c(SCC(=O)NC(=O)Cc2ccccc2)nc2ccccc2c1=O,–,–,–,–,–,–,·
COc1cccc(N2CCN(CC(=O)Nc3ccc(S(=O)(=O)N4CCCCCC4)cc3)CC2)c1,–,–,–,–,–,–,·
CC1(C)CC(=O)C2=C(C1)NC(=S)C(C#N)C21CCCCC1 (configuration not stated),–,–,–,–,–,110,–
CC1Sc2ccc(C(=O)N(CCc3ccccc3)Cc3ccccc3)cc2NC1=O (configuration not stated),–,–,–,–,–,103,–
CC1Sc2ccc(C(=O)O)cc2NC1=O (configuration not stated),·,–,·,–,·,–,·
C[C@H](CO)N1C[C@H](C)[C@@H](CN(C)C)Oc2cc(C#Cc3cccc(F)c3)ccc2S1(=O)=O,–,–,–,–,–,–,·
C[C@H]1CN([C@@H](C)CO)S(=O)(=O)c2ccc(C#Cc3cccc(F)c3)cc2O[C@@H]1CN(C)C,–,–,–,–,–,107,–
C[C@@H]1CN([C@@H](C)CO)S(=O)(=O)c2ccc(C#CC3CC3)cc2O[C@@H]1CN(C)Cc1cccc(F)c1,–,–,–,–,–,130,–
Cc1onc(-c2ccccc2)c1C(=O)OCC(=O)Nc1ccccc1,–,–,–,–,–,–,·
O=C(c1ccc(Cn2c(=O)[nH]c3ccccc3c2=O)cc1)N1CCN(c2ccccc2)CC1,–,–,·,–,·,480,–
O=C(c1ccc(Cn2c(=O)[nH]c3ccccc3c2=O)cc1)N1CCN(c2ccccn2)CC1,–,–,–,–,–,–,·
CC1(C#CC[N+]2(C)CCCCC2)CCC2C(O1)c1ccccc1OC2(C)C (configuration not stated),–,–,–,–,–,active,–
CC(O)(C#CCN1CCCCC1)c1ccccc1 (configuration not stated),·,–,·,–,·,–,·
CC(O)(C#CCN1CCCC1)c1ccccc1 (configuration not stated),–,–,·,–,·,–,–
OC(C#CCN1CCCC1)(c1ccccc1)c1cccc(F)c1 (configuration not stated),–,·,·,·,·,·,–
CN(C)c1ccc(S(=O)(=O)N2CCCCC2)cc1NC(=O)C1CSC2(C)CCC(=O)N12 (configuration not stated),–,–,–,–,–,–,·
CCOc1ccc(C(C)=O)cc1CSc1nc(C)cc(C)n1,–,–,–,–,–,213,–
C/C(=N\NC(=O)CCc1ccc(S(=O)(=O)N2CCOCC2)cc1)c1ccc(OC(F)F)cc1,–,–,–,–,–,–,·
CCN(CC)c1ccc(-c2nc3cnccn3c2NC2CCCC2)cc1,·,–,·,–,·,181,–
c1cn2c(NC3CCCCC3)c(-c3ccc(SC4CCCCC4)cc3)nc2cn1,–,–,–,–,–,–,·
COc1ccc2oc(C(=O)OCC(=O)NC(C)c3ccccc3)c(C)c2c1 (configuration not stated),–,–,–,–,–,–,–
CCOc1ccc2oc(C(=O)OCC(=O)NCc3ccc(OC)cc3)c(C)c2c1,–,–,–,–,–,–,·

# Screening data as filed in PubChem.
